Measurements from patent US10655163B2, “Methods, kits, and systems for multiplexed detection of target molecules and uses thereof” (THE GENERAL HOSPITAL CORPORATION, priority 2013, dated 2020).

Assays:
A431 single cells = assay type: cell-based, human
human cancer cell lines = assay: Control study: cell lines treated with cetuximab, ABCD protein profiling; assay type: cell-based; conditions: FIG. 15B
Text: Having established feasibility of inter- and intrapatient analyses in clinical samples, it was next sought to explore the feasibility of monitoring cancer treatment over time. To this end, it was first sought to determine if known pathway responses to different drug treatments could be discriminated. […] Notable examples include pS6RP for targeted treatments, and pH2A.X, pATM/ATR (phospho-ataxia telangiectasia mutated/ATM- and Rad3-related) substrate, and cleaved PARP for DNA-damaging agents. Unexpected results, such as epigenetic histone modifications after treatment with a phosphatidylinositol 3-kinase inhibitor (PI3Ki) was also found (FIG. 15E). For additional in vitro validation of treatment, HT1080 fibrosarcoma cell lines were treated with four different doses of taxol.
Drug treatments of cell lines. To test the effect of drug treatment on protein expression levels, the cell lines were treated with a number of different chemotherapeutic or molecularly targeted drugs. A431 cell lines were dosed with gefitinib (Selleck Chemicals) in medium with 1% dimethyl sulfoxide (DMSO) for 12 hours at a concentration of 10 μM. […]

## COc1cc2ncnc(Nc3ccc(F)c(Cl)c3)c2cc1OCCCN1CCOCC1 [gefitinib]
A431 single cells
  average expression value, Treated: CD56: 334.4
  average expression value, Treated: Dimethyl-histone H3 (Lys36): 86.9
  average expression value, Treated: FGFR4: 114.1
  average expression value, Treated: Ku80: 120.6
  average expression value, Treated: Phospho-S6RP: 58.4
  average expression value, Treated: Phospho-histone H3: 982.0

## cetuximab
Human cancer cell lines
  drug inhibition (protein markers): expected drug inhibition
